Protein sequences, listed by entry. Tags and fused reporters are not part of them. Residues count along the entry.
UniProt P25440, 74-180: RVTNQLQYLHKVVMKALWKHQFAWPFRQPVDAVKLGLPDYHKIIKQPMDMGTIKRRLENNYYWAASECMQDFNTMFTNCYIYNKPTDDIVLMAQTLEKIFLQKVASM

According to PMC9683399 (Journal of medicinal chemistry, 2022):

Biological target: BRD2 D1 (Homo sapiens, UniProt P25440)

Question: For `Cc1sc2c(c1C)C(c1ccc(Cl)cc1)=N[C@@H](CC(=O)OC(C)(C)C)c1nnc(C)n1-2` [(+)-JQ1], which “binding to BRD2 D1 by ITC” value is on record?
Answer: potent binding
